The values that follow come from PMC6213480, “A Novel Cold-Adapted Leucine Dehydrogenase from Antarctic Sea-Ice Bacterium Pseudoalteromonas sp. ANT178” (Marine Drugs, 2018).

In this data set the test system is O=C(O)[C@@H]1CCCN1. Description: purified protein. The conditions noted are these: oxidative deamination with NAD+, standard assay 0.1 M glycine-NaOH pH 10.4, 1 mM NAD+, 30 °C.

rPsLeuDH (Pseudoalteromonas sp.): the Michaelis-Menten constant (Km) was found to be 640 µM, the maximal velocity (Vmax) is 10.5 µmol/min/mg, the kcat was found to be 20.8 s⁻¹ and the catalytic efficiency (kcat/Km) stood at 32500 M⁻¹ s⁻¹.

The term Km denotes the substrate concentration at which the rate is half of its maximum. The term Vmax denotes the rate approached at saturating substrate. In general, kcat refers to the number of substrate molecules converted per active site and unit of time at saturation. Usually kcat/Km stands for the second-order rate constant that governs catalysis at low substrate concentration.
